Experimental data: article PMC6447637

Key:
[1] = molecular target: NaV1.4 CTerm Long (residues 1599-1764) (H. sapiens) (UniProt P35499); assay: ITC; CaM species in the syringe, NaV CTerm in the cell; Ca2+-free: 20 mM MOPS, 150 mM NaCl, 1 mM MgCl2, 50 µM EGTA; VP-ITC; fitted to a single binding site per monomer, error of the fit; one replicate
[2] = molecular target: NaV1.4 CTerm Long (residues 1599-1764) (H. sapiens) (UniProt P35499); assay: ITC; CaM species in the syringe, NaV CTerm in the cell; Ca2+-saturating: 20 mM MOPS, 150 mM NaCl, 1 mM MgCl2, 50 µM EGTA with 1 mM CaCl2; VP-ITC; fitted to a single binding site per monomer, error of the fit; one replicate

CaM12 (D20A, D56A; N lobe Ca2+ binding disabled) (from UniProt P0DP30 1-149) (natural protein)
stoichiometry N [1]: 0.993 Sites | stoichiometry N [2]: 1.01 Sites

calmodulin (full-length mammalian, CALM2) (from UniProt P0DP30 1-149) (natural protein)
stoichiometry N [1]: 0.971 Sites | stoichiometry N [2]: 1.01 Sites

CaM34 (D93A, D129A; C lobe Ca2+ binding disabled) (from UniProt P0DP30 1-149) (natural protein)
stoichiometry N [1]: 1 Sites | stoichiometry N [2]: 0.996 Sites
